From patent publication US11220486B2 (La Jolla Institute of Allergy & Immunology, priority 2014, dated 2022) come the findings set out here.

Sequences of proteins named here, by UniProt entry; tags and fusion partners are left off.
UniProt P24666, whole entry: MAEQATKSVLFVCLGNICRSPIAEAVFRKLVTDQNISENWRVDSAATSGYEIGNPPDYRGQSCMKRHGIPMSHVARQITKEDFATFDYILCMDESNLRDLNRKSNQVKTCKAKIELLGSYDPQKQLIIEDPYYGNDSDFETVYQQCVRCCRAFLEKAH

In the test the target is LMPTP-A (Low Molecular Weight Protein Tyrosine Phosphatase-A) enzyme (Homo sapiens (Human), UniProt P24666). Put plainly: LMPTP primary screening / LMPTP (OMFP) enzyme inhibition assay, fluorescence intensity. Format: biochemical. The note with it: SAR discussion.

Each structure is given as a SMILES string.

`c1ccc(-c2cc(N3CCCCC3)c3ccccc3n2)cc1`: the “potency in the LMPTP (OMFP) assay, in words” value was “potency was less than the screening hit”.
